According to ChEMBL document CHEMBL4665709, “Rational Avoidance of Protease Cleavage Sites and Symmetrical End-Tagging Significantly Enhances the Stability and Therapeutic Potential of Antimicrobial Peptides” (J Med Chem, 2020):
≈ marks a conversion by molar mass, not a printed value.

Assays:
Escherichia coli [1] = assay: Antibacterial activity against Escherichia coli ATCC 25922 after 18 to 24 hrs in presence of 6 uM Fe3+ by CLSI-based broth microdilution method; assay type: functional; conditions: time hrs 18-24
Staphylococcus aureus [2] = assay: Antibacterial activity against Staphylococcus aureus ATCC 29213 after 18 to 24 hrs in presence of 6 uM Fe3+ by CLSI-based broth microdilution method; assay type: functional; conditions: time hrs 18-24
Staphylococcus aureus [3] = assay: Antibacterial activity against Staphylococcus aureus ATCC 29213 after 18 to 24 hrs in presence of 1 mM Mg2+ by CLSI-based broth microdilution method; assay type: functional; conditions: time hrs 18-24
Salmonella typhimurium [4] = assay: Antibacterial activity against Salmonella typhimurium 14028 after 18 to 24 hrs by CLSI-based broth microdilution method; assay type: functional, Salmonella enterica subsp. enterica serovar Typhimurium; conditions: Salmonella enterica, time hrs 18-24
Escherichia coli [5] = assay: Antibacterial activity against Escherichia coli ATCC 25922 after 18 to 24 hrs by CLSI-based broth microdilution method; assay type: functional; conditions: time hrs 18-24
Escherichia coli [6] = assay: Antibacterial activity against Escherichia coli ATCC 25922 after 18 to 24 hrs in presence of 150 mM Na+ by CLSI-based broth microdilution method; assay type: functional; conditions: time hrs 18-24
Escherichia coli [7] = assay: Antibacterial activity against Escherichia coli ATCC 25922 after 18 to 24 hrs in presence of 50% human serum by CLSI-based broth microdilution method; assay type: functional; conditions: time hrs 18-24
Staphylococcus aureus [8] = assay: Antibacterial activity against Staphylococcus aureus ATCC 29213 after 18 to 24 hrs by CLSI-based broth microdilution method; assay type: functional; conditions: time hrs 18-24
Escherichia coli [9] = assay: Antibacterial activity against Escherichia coli ATCC 25922 after 18 to 24 hrs in presence of 8 uM Zn2+ by CLSI-based broth microdilution method; assay type: functional; conditions: time hrs 18-24
Staphylococcus aureus [10] = assay: Antibacterial activity against Staphylococcus aureus ATCC 29213 after 18 to 24 hrs in presence of 6 uM NH4+ by CLSI-based broth microdilution method; assay type: functional; conditions: time hrs 18-24
Salmonella typhimurium [11] = assay: Antibacterial activity against Salmonella typhimurium 7731 after 18 to 24 hrs by CLSI-based broth microdilution method; assay type: functional, Salmonella enterica subsp. enterica serovar Typhimurium; conditions: Salmonella enterica, time hrs 18-24
Staphylococcus aureus [12] = assay: Antibacterial activity against Staphylococcus aureus ATCC 29213 after 18 to 24 hrs in presence of 150 mM Na+ by CLSI-based broth microdilution method; assay type: functional; conditions: time hrs 18-24
Escherichia coli [13] = assay: Antibacterial activity against Escherichia coli ATCC 25922 after 18 to 24 hrs in presence of 100% human serum by CLSI-based broth microdilution method; assay type: functional; conditions: time hrs 18-24
Staphylococcus aureus [14] = assay: Antibacterial activity against Staphylococcus aureus 11011 after 18 to 24 hrs by CLSI-based broth microdilution method; assay type: functional; conditions: time hrs 18-24
Staphylococcus aureus [15] = assay: Antibacterial activity against Staphylococcus aureus ATCC 29213 after 18 to 24 hrs in presence of 8 uM Zn2+ by CLSI-based broth microdilution method; assay type: functional; conditions: time hrs 18-24
Staphylococcus aureus [16] = assay: Antibacterial activity against methicillin-resistant Staphylococcus aureus 43300 after 18 to 24 hrs by CLSI-based broth microdilution method; assay type: functional; conditions: time hrs 18-24
Staphylococcus aureus [17] = assay: Antibacterial activity against Staphylococcus aureus ATCC 29213 after 18 to 24 hrs in presence of 25% human serum by CLSI-based broth microdilution method; assay type: functional; conditions: time hrs 18-24
Escherichia coli [18] = assay: Antibacterial activity against Escherichia coli ATCC 25922 after 18 to 24 hrs in presence of 25% human serum by CLSI-based broth microdilution method; assay type: functional; conditions: time hrs 18-24
Escherichia coli [19] = assay: Antibacterial activity against Escherichia coli ATCC 25922 after 18 to 24 hrs in presence of 6 uM NH4+ by CLSI-based broth microdilution method; assay type: functional; conditions: time hrs 18-24
Escherichia coli [20] = assay: Antibacterial activity against Escherichia coli UB1005 after 18 to 24 hrs by CLSI-based broth microdilution method; assay type: functional; conditions: time hrs 18-24
Staphylococcus aureus [21] = assay: Antibacterial activity against Staphylococcus aureus ATCC 29213 after 18 to 24 hrs in presence of 4.5 mM K+ by CLSI-based broth microdilution method; assay type: functional; conditions: time hrs 18-24
Staphylococcus aureus [22] = assay: Antibacterial activity against Staphylococcus aureus ATCC 29213 after 18 to 24 hrs in presence of 100% human serum by CLSI-based broth microdilution method; assay type: functional; conditions: time hrs 18-24
Staphylococcus aureus [23] = assay: Antibacterial activity against Staphylococcus aureus ATCC 29213 after 18 to 24 hrs in presence of 50% human serum by CLSI-based broth microdilution method; assay type: functional; conditions: time hrs 18-24
[24] = system: Staphylococcus epidermidis; assay: Antibacterial activity against Staphylococcus epidermidis ATCC 12228 after 18 to 24 hrs by CLSI-based broth microdilution method; assay type: functional; conditions: time hrs 18-24
Escherichia coli [25] = assay: Antibacterial activity against Escherichia coli ATCC 25922 after 18 to 24 hrs in presence of 4.5 mM K+ by CLSI-based broth microdilution method; assay type: functional; conditions: time hrs 18-24
Escherichia coli [26] = assay: Antibacterial activity against Escherichia coli ATCC 25922 after 18 to 24 hrs in presence of 1 mM Mg2+ by CLSI-based broth microdilution method; assay type: functional; conditions: time hrs 18-24

## CC[C@H](C)[C@H](NC(=O)CN)C(=O)NCC(=O)N[C@@H](C)C(=O)N[C@H](C(=O)N[C@@H](CC(C)C)C(=O)N[C@@H](CCCCN)C(=O)N[C@H](C(=O)N[C@@H](CC(C)C)C(=O)N[C@H](C(=O)N[C@H](C(=O)NCC(=O)N[C@@H](CC(C)C)C(=O)N1CCC[C@H]1C(=O)N[C@@H](C)C(=O)N[C@@H](CC(C)C)C(=O)N[C@H](C(=O)N[C@@H](CO)C(=O)N[C@@H](Cc1c[nH]c2ccccc12)C(=O)N[C@H](C(=O)N[C@@H](CCCCN)C(=O)N[C@@H](CCCNC(=N)N)C(=O)N[C@@H](CCCCN)C(=O)N[C@@H](CCCNC(=N)N)C(=O)N[C@@H](CCC(N)=O)C(=O)N[C@@H](CCC(N)=O)C(N)=O)[C@@H](C)CC)[C@@H](C)CC)[C@@H](C)O)[C@@H](C)O)C(C)C)C(C)C [MELITTIN]
Escherichia coli [1]
  MIC: 2 µM
Staphylococcus aureus [2]
  MIC: 2 µM
Staphylococcus aureus [3]
  MIC: 4 µM
Salmonella typhimurium [4]
  MIC: 2 µM (≈ 5.69 µg/mL)
Escherichia coli [5]
  MIC: 2 µM (≈ 5.69 µg/mL)
Escherichia coli [6]
  MIC: 4 µM
Escherichia coli [7]
  MIC: 8 µM
Staphylococcus aureus [8]
  MIC: 2 µM (≈ 5.69 µg/mL)
Escherichia coli [9]
  MIC: 2 µM
Staphylococcus aureus [10]
  MIC: 2 µM
Salmonella typhimurium [11]
  MIC: 2 µM (≈ 5.69 µg/mL)
Staphylococcus aureus [12]
  MIC: 4 µM
Escherichia coli [13]
  MIC: 8 µM
Staphylococcus aureus [14]
  MIC: 2 µM (≈ 5.69 µg/mL)
Staphylococcus aureus [15]
  MIC: 2 µM
Staphylococcus aureus [16]
  MIC: 2 µM (≈ 5.69 µg/mL)
Staphylococcus aureus [17]
  MIC: 8 µM
Escherichia coli [18]
  MIC: 8 µM
Escherichia coli [19]
  MIC: 2 µM
Escherichia coli [20]
  MIC: 2 µM (≈ 5.69 µg/mL)
Staphylococcus aureus [21]
  MIC: 2 µM
Staphylococcus aureus [22]
  MIC: 8 µM
Staphylococcus aureus [23]
  MIC: 4 µM
[24]
  MIC: 2 µM (≈ 5.69 µg/mL)
Escherichia coli [25]
  MIC: 2 µM
Escherichia coli [26]
  MIC: 4 µM
